Where two headings read alike, the source gives them in different places.
Experiments:
KB cells [1] = experiment: Incorporation of labeled precursors into DNA, RNA and protein in KB cells; conditions: 20-24 hours
KB cells [2] = system: KB cells
[3] = read-out: IC50 DNA, [3H]thymidine incorporation
[4] = read-out: IC50 Protein, 3H-amino acids incorporation
[5] = read-out: IC50 RNA, [3H]uridine incorporation

Q: Which results are given for COc1ccc2c3c1O[C@H]1[C@@H](O)C=C[C@H]4[C@@H](C2)N(C)CC[C@@]341?
A: IC50 (KB cells [1]; [3]): > 1 mM; IC50 (KB cells [1]; [4]): > 1 mM; IC50 (KB cells [1]; [5]): > 1 mM; IC50 (KB cells [2]): 0.34 mM

Q: How did the IC50 (KB cells [1]; [3]) turn out when CN1CC[C@]23c4c5ccc(O)c4O[C@H]2C(=O)CC[C@H]3[C@H]1C5 was run?
A: The IC50 was > 1 mM.

Q: And the IC50 (KB cells [1]; [4])?
A: The IC50 was > 1 mM.

Q: What about the IC50 (KB cells [1]; [5]) of the same compound?
A: The IC50 was > 1 mM.

Q: With COC1=CC=C2[C@H]3Cc4ccc(OC)c5c4[C@@]2(CCN3C)[C@H]1O5 as the compound, how does the IC50 (KB cells [1]; [3]) read?
A: The IC50 was > 1 mM.

Q: What about the IC50 (KB cells [1]; [4]) of the same compound?
A: The IC50 was > 1 mM.

Q: What about the IC50 (KB cells [1]; [5]) of the same compound?
A: The IC50 was > 1 mM.

Q: And the IC50 (KB cells [2])?
A: The IC50 was 0.74 mM.

Source: patent US4891377A, “Transdermal delivery of the narcotic analgesics etorphine and analogs” (dated 1990)
